A word on the IC50: it is the concentration that gives 50% inhibition. Lower therefore signals greater potency.

Protein sequences, listed by entry. Tags and fused reporters are not part of them. Lines headed by an entry give the natural chain unless they say otherwise; changes in a name come on top.
UniProt P22303: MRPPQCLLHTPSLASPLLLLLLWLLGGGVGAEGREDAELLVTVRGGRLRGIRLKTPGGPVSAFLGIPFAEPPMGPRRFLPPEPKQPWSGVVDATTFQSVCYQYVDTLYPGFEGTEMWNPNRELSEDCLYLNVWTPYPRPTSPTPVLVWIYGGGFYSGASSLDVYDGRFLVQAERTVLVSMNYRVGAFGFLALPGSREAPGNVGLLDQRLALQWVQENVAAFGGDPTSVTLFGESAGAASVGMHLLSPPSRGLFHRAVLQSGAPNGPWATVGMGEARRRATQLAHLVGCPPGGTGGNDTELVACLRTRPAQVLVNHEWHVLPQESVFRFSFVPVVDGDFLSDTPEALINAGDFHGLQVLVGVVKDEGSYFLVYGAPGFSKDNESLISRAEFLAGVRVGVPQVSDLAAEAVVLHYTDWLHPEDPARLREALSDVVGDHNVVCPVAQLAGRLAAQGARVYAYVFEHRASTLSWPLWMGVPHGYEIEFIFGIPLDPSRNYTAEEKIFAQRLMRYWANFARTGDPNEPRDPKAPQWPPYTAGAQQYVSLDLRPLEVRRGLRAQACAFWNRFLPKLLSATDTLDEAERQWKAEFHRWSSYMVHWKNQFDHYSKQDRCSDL
UniProt P06276: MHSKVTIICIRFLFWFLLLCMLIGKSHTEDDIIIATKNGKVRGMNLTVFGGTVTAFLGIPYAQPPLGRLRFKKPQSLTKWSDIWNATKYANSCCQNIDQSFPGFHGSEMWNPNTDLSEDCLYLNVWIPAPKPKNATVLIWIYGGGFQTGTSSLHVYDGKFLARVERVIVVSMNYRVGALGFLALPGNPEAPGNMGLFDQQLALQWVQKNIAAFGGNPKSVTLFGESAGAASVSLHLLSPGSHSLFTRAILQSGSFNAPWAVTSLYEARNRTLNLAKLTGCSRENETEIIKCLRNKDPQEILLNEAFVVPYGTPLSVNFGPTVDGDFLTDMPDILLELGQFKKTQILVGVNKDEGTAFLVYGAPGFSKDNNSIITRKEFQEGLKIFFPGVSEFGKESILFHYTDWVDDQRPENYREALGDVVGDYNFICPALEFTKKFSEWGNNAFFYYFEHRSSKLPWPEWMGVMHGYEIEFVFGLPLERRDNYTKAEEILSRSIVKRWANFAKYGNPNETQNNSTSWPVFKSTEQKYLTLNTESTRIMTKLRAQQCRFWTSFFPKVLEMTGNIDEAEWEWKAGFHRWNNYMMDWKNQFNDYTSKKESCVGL
UniProt P23795: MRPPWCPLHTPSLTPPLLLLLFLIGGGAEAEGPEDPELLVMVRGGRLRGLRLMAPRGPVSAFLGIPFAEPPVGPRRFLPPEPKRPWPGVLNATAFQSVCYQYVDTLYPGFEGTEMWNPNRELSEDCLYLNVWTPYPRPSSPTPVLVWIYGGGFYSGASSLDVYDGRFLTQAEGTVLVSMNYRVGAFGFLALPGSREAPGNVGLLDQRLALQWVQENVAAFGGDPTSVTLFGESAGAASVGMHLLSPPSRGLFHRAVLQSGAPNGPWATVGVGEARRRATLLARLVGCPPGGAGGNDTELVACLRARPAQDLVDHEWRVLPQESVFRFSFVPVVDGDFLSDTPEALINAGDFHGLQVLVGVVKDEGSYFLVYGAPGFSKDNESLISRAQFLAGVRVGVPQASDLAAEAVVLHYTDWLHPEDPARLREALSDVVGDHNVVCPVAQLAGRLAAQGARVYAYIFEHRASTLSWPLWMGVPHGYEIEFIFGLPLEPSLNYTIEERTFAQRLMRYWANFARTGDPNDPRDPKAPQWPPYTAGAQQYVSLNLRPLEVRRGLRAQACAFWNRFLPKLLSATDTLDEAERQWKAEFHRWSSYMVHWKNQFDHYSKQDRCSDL

These results are taken from ChEMBL document CHEMBL1150773, “Novel donepezil-based inhibitors of acetyl- and butyrylcholinesterase and acetylcholinesterase-induced beta-amyloid aggregation” (J Med Chem, 2008).

Test [1] concerns the target Acetylcholinesterase (Homo sapiens, UniProt P22303).
Test [2] has as its target Cholinesterase (Homo sapiens, UniProt P06276).
The target in test [3] is Acetylcholinesterase (Bos taurus, UniProt P23795).

Regarding “9-[(2-{4-[(5,6-Dimethoxy-1-oxoindan-2-yl)methyl]piperidin-1-yl}ethyl)amino]-1,2,3,4-tetrahydroacridine dihydrochloride”, the IC50 in test [1] came out at 4.04 nM; in test [2], 12.4 nM; in test [3], 1.74 nM.
